We go through one substance from patent publication US6596319B2, “Immunomodulating compositions for treatment of immune system disorders” (Lorus Therapeutics Inc., priority 2001, dated 2003).

This series relates to lymphocytes. Description: Stimulation of lymphocyte-mediated cytotoxic function. In kind it is cell-based, human. The note with it: optimal stimulating concentration of IL-2. The source says:
These indicators of immune function also can be modulated in cancer patients treated with different biological response modifying agents, such as IFN or IL-2.
2. Stimulation of lymphocyte-mediated cytotoxic function and comparison with an optimal stimulating concentration of IL-2: […]

Substance “IL-2: interleukin-2, prototypic stimulator of lymphocyte cytotoxic function” had a Lymphocyte-mediated cytotoxic function of 472.5 Lytic Units.
